Source: patent US20110059095A1
Where a chain is given by its changes, count along the chain named.

Sequences of proteins named here, by UniProt entry; tags and fusion partners are left off. Residues count along the entry.
UniProt P55085, 26-397 G138A limits assumed: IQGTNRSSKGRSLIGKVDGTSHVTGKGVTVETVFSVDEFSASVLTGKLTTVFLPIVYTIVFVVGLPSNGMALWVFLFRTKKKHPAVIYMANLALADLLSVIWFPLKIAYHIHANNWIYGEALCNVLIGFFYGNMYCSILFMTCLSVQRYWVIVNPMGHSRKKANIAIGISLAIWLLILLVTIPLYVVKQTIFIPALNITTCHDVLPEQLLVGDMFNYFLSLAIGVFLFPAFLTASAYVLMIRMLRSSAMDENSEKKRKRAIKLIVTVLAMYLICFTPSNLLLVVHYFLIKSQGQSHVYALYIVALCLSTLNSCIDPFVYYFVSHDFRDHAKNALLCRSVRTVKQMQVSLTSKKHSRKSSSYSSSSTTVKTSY

T1: Peptide B (human PAR-2), N-terminal biotinylated (Human)
T1 sequence (peptide, N-terminal biotin via G4S linker): GGGGSSLIGKVDGTSHVTG

T2: Peptide B (human PAR-2), C-terminal biotinylated (Human)
T2 sequence (peptide, C-terminal biotin via G4S linker): SLIGKVDGTSHVTGGGGGS

B1: H2M610N (antibody, V domains shown)
VH: EVQLVESGGNLVQPGRSLRLSCAASGFTFDDYAMHWVRQAPGKGLEWVSGISWNSGSRGYADSVKGRFTISRDNAKNSLYLQMNSLRTEDTAFYYCTKEDEAFDYWGQGTLVTVSS
VL: DIVMTQTPLSSPVTLGQPASISCRSSQSLVHSDRNTYLSWLQQRPGQPPRLLIYKISNRFSGVPDRFSGSGAGTDFTLKISRVEAEDVGFYYCMQATQFPYTFGQGTKLQIN
B2: H1M612N (antibody, V domains shown)
VH: EVQLVESGGGLVQPGRSLRLSCAASGFTFDDYAMHWVRQAPGKGLEWVSGITWNSGNMAYADSVKGRFTISRDNAKNSLYLQMNSLRAEDTALYYCAKENWAFDYWGQGTRVIVSS
VL: B1 VL with Q27H, R34G, F90V, Y92F, Q110E, N112K
B3: H2M614N (antibody, V domains shown)
VH: B1 VH with N10G, A40V, S52T, R58I, G59D, T88A, T97V
VL: B1 VL with R34G, F67I, F90V, Q110E, N112K

How the values were obtained:
[1] = target: full length human PAR-2 (human) (UniProt P55085); assay: cell ELISA, 10 ug/ml antibody
[2] = target: T1, Peptide B (human PAR-2), N-terminal biotinylated (Human); assay: peptide ELISA
[3] = target: T2, Peptide B (human PAR-2), C-terminal biotinylated (Human); assay: peptide ELISA

Binder | A450 ratio (293/D9/hPAR-2rec to 293/D9 cells) [1] | OD450 [2] | OD450 [3]
B1 | 1.66 | 0 to 0.09 od | 0 to 0.09 od
B2 | 1.9 |  | 
B3 | 1.17 |  | 
